# Results: PubChem BioAssay AID588855 (National Center for Advancing Translational Sciences (NCATS), 2011)
# Only a part is listed here, and it is no random draw. Results filed as inconclusive are left out. Activity calls are given as the source filed them. Calls come from the whole dose curve; as a rule, active = well fitted inhibition curve with a large enough effect; inconclusive = small, poorly fitted or top-dose-only effect; inactive = no such curve, though single readings can be large or run the other way.
# Assay: qHTS for Inhibitors of TGF-b; note: nearly all actives have a fitted effect of over 65% in size
# Conditions: HepG2 CAGA-GFP TGF-b/SMAD3 reporter, GFP fluorescence, 18 h, TGF-beta stimulated, 500 pg/mL final; series mostly up to 46.1 µM; activity, negative = inhibition: at the top concentration
# % is set by controls: 0 for no effect and ±100 for the full control effect; potency is the fitted concentration of half-maximal effect.
SMILES,"activity, negative = inhibition",Potency
Cc1ccc(OP(=O)(Nc2nccs2)Oc2ccc(C)cc2)cc1,inactive: -10.7%,–
Oc1ccccc1CNc1ccccn1,inactive: -1.02%,–
O=C(NC(Sc1ccncn1)C(Cl)(Cl)Cl)c1ccccc1 (stereo not drawn),inactive: 0.764%,–
CC(C)CC(=O)NC(Sc1ccc(Cl)cc1)C(Cl)(Cl)Cl (stereo not drawn),inactive: 0.0906%,–
Nc1cc(N)c2nonc2c1[N+](=O)[O-],inactive: 10.2%,–
O=[N+]([O-])C1C(O)C(O)C([N+](=O)[O-])C(O)C1O (stereo not drawn),inactive: 2.14%,–
O=P1(Nc2nc3ccc(Cl)cc3s2)COc2ccccc2O1 (stereo not drawn),inactive: -3.07%,–
CCOc1ccc(C2=NCC(CBr)S2)cc1 (stereo not drawn),inactive: -4.28%,–
CCc1cc(O)c([N+](=O)[O-])c(C)c1[N+](=O)[O-],inactive: 6.43%,–
Cc1ccccc1CN(C)C(=O)COC(=O)C(O)(c1ccccc1)c1ccccc1,inactive: -8.51%,–
C[C@@H]1C=CCP(=O)(Oc2ccccc2)O1 (stereo partly drawn),inactive: -3.38%,–
C[C@H]1OP(=O)(Oc2ccccc2)C[C@@H]2O[C@@H]21 (stereo partly drawn),inactive: 10.2%,–
CC(=O)c1ccc(N2CC2c2ccncc2)cc1 (stereo not drawn),inactive: 0%,–
COC(=O)C1(C)COP(=O)(NCc2ccccc2)OC1 (stereo not drawn),inactive: -7.79%,–
CC(=O)Nc1ccc([As](=O)(O)O)c(O)c1,inactive: 0%,–
CC(=O)Nc1ccc(Oc2c([N+](=O)[O-])cc([N+](=O)[O-])cc2[N+](=O)[O-])cc1,inactive: -5.34%,–
c1ccc(-c2nn[nH]n2)c(-c2nn[nH]n2)c1,inactive: 17%,–
O=[N+]([O-])c1cc([N+](=O)[O-])c2nc[nH]c2c1,inactive: -11.4%,–
Cc1ccc(NP(=O)(Oc2cccc(C)c2)Oc2cccc(C)c2)nc1,inactive: 0%,–
O=C(NC1CCS(=O)(=O)C1)NP(=S)(Oc1ccccc1)Oc1ccccc1 (stereo not drawn),inactive: 3.6%,–
CCNC(=S)/N=C(\N)N[N+](=O)[O-],inactive: -1.56%,–
O=P1(N(CCCl)CCCl)OCCC2CCCCN21 (stereo not drawn),inactive: -7.27%,–

SMILES,"activity, negative = inhibition",Potency
O=C(OC1CN2CCC1CC2)c1ccccc1 (stereo not drawn),inactive: 45.3%,–
CCC(=O)N1C2C3N(C(=O)CC)C1C1N(C(=O)CC)C(C(N1C(=O)CC)N3C(=O)CC)N2C(=O)CC,inactive: -27%,–
COC(=O)c1cc2c(s1)N=C(c1ccccc1)N(C)P2(=O)N1CCOCC1 (stereo not drawn),inactive: -10.2%,–
CC(=O)NC(SC(=S)N(CC(C)C)CC(C)C)C(Cl)(Cl)Cl (stereo not drawn),inactive: -8.28%,–
Cc1ccccc1OP(=O)(Nc1ccccn1)Oc1ccccc1C,inactive: -19.9%,–
CC(NC(=O)COC(=O)C(O)(c1ccccc1)c1ccccc1)c1ccccc1 (stereo not drawn),inactive: -13.2%,–
CN(C)C(=O)Oc1noc2ccccc12,inactive: 11.8%,–
O=c1c2cc([N+](=O)[O-])ccc2[nH]c2c([N+](=O)[O-])cc([N+](=O)[O-])cc12,–,active: 3.55 µM
CN(C)C1(CNC(=O)c2ccc(Cl)c(S(N)(=O)=O)c2)CCCCC1,inactive: -2.82%,–
COc1ccc(N)c([N+](=O)[O-])c1[N+](=O)[O-],inactive: -1.1%,–
O=P(Nc1nc2ccccc2s1)(c1ccccc1)c1ccccc1,inactive: 6.06%,–
C[C@H]1OP(=O)(Oc2ccccc2)[C@H](O)[C@H](O)[C@H]1N=[N+]=[N-] (stereo partly drawn),inactive: -38.6%,–
O=[As](O)(c1ccccc1)c1ccc(O)cc1,inactive: 12.4%,–
O=[N+]([O-])c1ncn(CCn2cnc([N+](=O)[O-])n2)n1,inactive: 3.45%,–
CC(=O)NC(SC(=S)N(C)C)C(Cl)(Cl)Cl (stereo not drawn),–,active: 5.01 µM
O=C(OC1CN2CCC1CC2)c1cccc(Cl)c1 (stereo not drawn),inactive: -16.5%,–
Nc1ccc([As](=O)(O)c2ccc([N+](=O)[O-])cc2)cc1,inactive: -2.91%,–
C(Cc1nn[nH]n1)Cc1nn[nH]n1,inactive: -16.6%,–
O=P(Nc1nccs1)(c1ccccc1)c1ccccc1,inactive: 6.65%,–
CC(C)C(=O)NC(Sc1ccccc1)C(Cl)(Cl)Cl (stereo not drawn),inactive: 6%,–
c1nnnn1CCn1cnnn1,inactive: -8.46%,–
